Reference: patent US20050032810A1, “Novel anthelmintic and insecticidal compositions” (priority 2003, published 2005)
Counter-ions that a name gives are not always drawn.

The chains behind the UniProt entries cited, without tags or fusion partners.
UniProt Q7KRX1, entry or part of it: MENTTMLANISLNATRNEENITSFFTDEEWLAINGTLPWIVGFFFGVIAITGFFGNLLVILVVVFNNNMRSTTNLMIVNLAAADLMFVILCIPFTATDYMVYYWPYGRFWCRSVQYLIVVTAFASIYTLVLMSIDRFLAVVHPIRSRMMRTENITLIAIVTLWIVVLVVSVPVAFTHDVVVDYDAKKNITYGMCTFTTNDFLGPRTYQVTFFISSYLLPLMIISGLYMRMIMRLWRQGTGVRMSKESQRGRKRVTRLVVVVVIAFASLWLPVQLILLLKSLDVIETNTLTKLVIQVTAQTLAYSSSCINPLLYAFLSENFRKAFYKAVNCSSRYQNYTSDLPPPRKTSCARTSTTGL

The compounds below were run against Drosophila type 2 allatostatin receptor (Dm4) (Drosophila melanogaster, UniProt Q7KRX1) (assay: biochemical).
Nc1cc(N2CCC(c3ccccc3)CC2)nc(N)n1 [Compound 2, 6-(4-phenylpiperidin-1-yl)pyrimidine-2,4-diamine] gave an IC50 of 0.79 µM. Nc1cc(N2CCC(c3ccccc3)CC2)nc(N)n1 [Compound 3, 6-(4-phenylpiperidin-1-yl)pyrimidine-2,4-diamine hydrochloride] showed an IC50 of 0.2 to 0.4 µM. COc1ccc(C2CCN(c3cc(N)nc(N)n3)CC2)cc1 [Compound 4, 6-[4-(4-methoxyphenyl)piperidin-1-yl]pyrimidine-2,4-diamine] showed an IC50 of 1.6 µM. Compound COc1cc(N2CCC(c3ccccc3)CC2)nc(OC)n1 [Compound 6, 2,4-dimethoxy-6-(4-phenylpiperidin-1-yl)pyrimidine] has an IC50 of 222 µM. For Cc1cc(N2CCC(c3ccccc3)CC2)nc(N)n1 [Compound 8, 4-methyl-6-(4-phenylpiperidin-1-yl)pyrimidin-2-amine], the IC50 was 2.64 µM.
